Test system: glioblastoma cell line T98G
Experiment: Combination index (Chou-Talalay) of DNA damaging agent with Compound 1
Assay type: cell-based
Details: T98G (O^6-MGMT^+); Compound 1 at its IC50 combined with dose response of the agent; CI < 1 synergism

CN(N=O)C(=O)N[C@H]1C(O)O[C@H](CO)[C@@H](O)[C@@H]1O (mixture of isomers) [Streptozotocin]
Mean CI ± SD (combination index with Compound 1): 0.56 ± 0.05

— patent US8211912B2, “Compositions and methods for effecting NAD+ levels using a nicotinamide phosphoribosyl tranferase inhibitor” (Gemin X Pharmaceuticals Canada, priority 2007, dated 2012)
